Where “and” joins values, the source holds several entries; their conditions need not be identical. Equal entries are not always repeated. Where two headings read alike, the source gives them in different places. One block for each compound: values may come before it.
Target: T1, rat A3 receptor (Rattus norvegicus, UniProt P28647)
T1 sequence (P28647 1-320): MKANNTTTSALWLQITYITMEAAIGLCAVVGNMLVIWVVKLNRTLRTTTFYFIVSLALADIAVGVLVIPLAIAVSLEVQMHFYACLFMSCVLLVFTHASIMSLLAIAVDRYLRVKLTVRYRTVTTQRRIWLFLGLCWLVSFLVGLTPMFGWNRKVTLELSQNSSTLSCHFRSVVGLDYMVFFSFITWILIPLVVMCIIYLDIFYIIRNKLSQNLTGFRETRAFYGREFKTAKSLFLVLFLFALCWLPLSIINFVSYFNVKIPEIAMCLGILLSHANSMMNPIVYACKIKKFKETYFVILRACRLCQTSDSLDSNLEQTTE
Experiment: biochemical
Type: binding
Conditions: for inhibition at 100 µM: read-out: A3 percent displacement

[1] = CHO cells stably transfected with rat A3 cDNA, [125I]APNEA or [125I]AB-MECA, read-out: A3 affinity Ki
[2] = Table 4, [125I]AB-MECA, CHO/rat A3, read-out: Ki (A3)
[3] = Table 2, [125I]AB-MECA, CHO/rat A3, read-out: Ki (A3)

SMILES: Cn1c(=O)[nH]c(=O)c2[nH]cnc21 [Compound 100, 3-methylX, reference compound]
inhibition at 100 µM: 18.1 ± 6.7%

SMILES: Nc1nc2ccc(Cl)cc2c2nc(-c3ccco3)nn12 [Compound 93, 9-chloro-2-(2-furyl) [1,2,4]triazolo[1,5-c] quinazolin-5-amine]
Ki (Ki at A3 receptors): ≥ 100 µM
inhibition at 100 µM: 38 ± 14.5%

SMILES: CCNC(=O)[C@H]1O[C@@H](n2cnc3c(NCc4ccccc4[N+](=O)[O-])ncnc32)[C@H](O)[C@@H]1O [Compound 61, N^6-(2-nitrobenzyl)adenosine-5'-N-ethyluronamide]
Ki [1]: 0.0028 ± 0.0005 µM

SMILES: Nc1ccc(CCNc2ncnc3c2ncn3[C@@H]2O[C@H](CO)[C@@H](O)[C@H]2O)cc1[125I] [[^125 I]APNEA, [^125 I]N^6-2-(4-aminophenyl)ethyladenosine]
A1/A3 (Table 2, ratio of Ki): 0.14

SMILES: Cn1c(=O)[nH]c2nc[nH]c2c1=O [Compound 99, 1-methylX]
inhibition at 100 µM: 11.1 ± 1.6%

SMILES: CCNC(=O)[C@H]1O[C@@H](n2cnc3c(NC4CCCCC4)ncnc32)[C@H](O)[C@@H]1O [Compound 27, N^6 -cyclohexylNECA]
fold more potent than CHA at A3 receptors: 10 fold
fold more potent than NECA at A3 receptors: 7 fold
Ki (A3 affinity Ki): 0.016 ± 0.0054 µM

SMILES: CNC(=O)[C@H]1O[C@@H](n2cnc3c(NCc4cccc(I)c4)nc(NC)nc32)[C@H](O)[C@@H]1O [Example 45, N^6-(3-iodobenzyl)-2-methylamino-9-[5-(methylamido)-β-D-ribofuranosyl]-adenine]
selectivity (in words): highly selective for A3 receptors
Ki [3]: 0.00312 µM and 0.003 µM
A2/A3 (Table 2, ratio of Ki): 1300

SMILES: CCCCn1c(=O)c2c(ncn2[C@@H]2O[C@H](C(=O)N(C)C)[C@@H](O)[C@H]2O)n(CCCC)c1=O
A3 affinity decrease vs N-methyl 1,3-di-n-butylxanthine-7-β-D-ribofuronamide: 1000 fold

SMILES: O=S(=O)(O)CCNc1ncnc2c1ncn2[C@@H]1O[C@H](CO)[C@@H](O)[C@H]1O [Compound 11, N^6-(2-sulfo)ethyladenosine]
Ki [1]: 32.4 µM
Ki (read-out: Ki at A3 receptors): 32.4 µM

SMILES: NCCNC(=O)Cc1ccc(NC(=O)Cc2ccc(Nc3ncnc4c3ncn4[C@@H]3O[C@H](CO)[C@@H](O)[C@H]3O)cc2)cc1 [Compound 1, N^6-[4-[[[4-[[[(2-aminoethyl)amino]carbonyl]methyl]anilino]carbonyl]methyl]phenyl]adenosine]
Ki (read-out: A3 affinity Ki): 0.281 ± 0.051 µM

SMILES: CCCCCCn1c(=O)c2c(ncn2[C@@H]2O[C@H](C(=O)NC)[C@@H](O)[C@H]2O)n(CCCCCC)c1=O [Example 69, N-methyl 1,3-di-n-hexylxanthine-7-β-D-ribofuronamide]
A1/A3 (Table 4, ratio of Ki): 3.0
A2/A3 (Table 4, ratio of Ki): > 10

SMILES: Nc1ncnc2c1ncn2[C@@H]1O[C@H](CO)C[C@H]1O [Compound 72, 3'-deoxyadenosine, reference compound]
IC50: > 100 µM
inhibition at 100 µM (at 100 μM): 32.7 ± 2%

SMILES: NC(=O)[C@H]1O[C@@H](n2cnc3c(NCc4ccccc4)ncnc32)[C@H](O)[C@@H]1O [Compound 39, N^6-benzyl-5'-carboxamidoadenosine]
Ki [1]: 0.246 ± 0.035 µM

SMILES: CCNC(=O)[C@H]1O[C@@H](n2cnc3c(N(C)C)ncnc32)[C@H](O)[C@@H]1O [Compound 29, N^6 -dimethylNECA]
fold more potent than N6-dimethyladenosine at A3 receptors: 14 fold
selectivity for A3 over A1 receptors: 4 fold
selectivity for A3 over A2 (A2a) receptors: 6 fold
Ki [1]: 2.26 µM

SMILES: Cn1c(=O)c2[nH]c(-c3ccccc3)nc2n(C)c1=O [Compound 127, 8-phenylT]
inhibition at 100 µM: 12 ± 6%

SMILES: CCNC(=O)[C@H]1O[C@@H](n2cnc3c(N)nc(NCCc4ccc(CCC(=O)NCCN)cc4)nc32)[C@H](O)[C@@H]1O [APEC, reference compound]
Ki [3]: 0.05 ± 0.024 µM
A2/A3 (Table 2, ratio of Ki): 0.11

SMILES: CCCn1c(=O)[nH]c2nc(C3CCCC3)[nH]c2c1=O [Compound 129, 8-cyclopentyl-1-propylX, reference compound]
inhibition at 100 µM: 22.6 ± 7.7%

SMILES: NCCNC(=O)[C@H]1O[C@@H](n2cnc3c(N)ncnc32)[C@H](O)[C@@H]1O [Compound 25, 5'-N-aminoethylaminocarboxamidoadenosine]
selectivity (in words): A3 -selective
Ki (read-out: A3 affinity Ki): 14.7 µM

SMILES: CCCCn1c(=O)n(Cc2ccccc2)c(=O)c2c1ncn2[C@@H]1O[C@H](CO)[C@@H](O)[C@H]1O [Compound 120, 1-benzyl-3-butylxanthine-7-β-D-ribofuranoside]
potency decrease at A3 vs 1,3-di-n-butylxanthine-7-β-D-ribofuranoside: 2 fold
Ki [1]: 12.9 µM
Ki [2]: 12.9 µM
A1/A3 (rat): 0.17
A2/A3 (rat): 0.67

SMILES: Nc1ncnc2c1ncn2[C@@H]1O[C@H](CO)[C@@H](O)[C@@H]1O [Compound 79, adenine-β-D-arabinofuranoside]
displacement of radioligand from A3 (in words): low affinity compound
inhibition at 100 µM: 23.7 ± 3.8%

SMILES: CCCCCn1c(=O)c2c(ncn2[C@@H]2O[C@H](CO)[C@@H](O)[C@H]2O)n(CCCCC)c1=O [Example 63, 1,3-di-n-pentylxanthine-7-β-D-ribofuranoside]
A1/A3: 1.8
A2/A3: 9.8
selectivity for A3 over A1 receptors: 2 fold
selectivity for A3 over A2 (A2a) receptors: 10 fold

SMILES: CC(C)CSC[C@H]1O[C@@H](n2cnc3c(N)ncnc32)[C@H](O)[C@@H]1O [Compound 76, 5'-deoxy-5'-isobutylthio adenosine, reference compound]
Ki [1]: 3.36 µM

SMILES: O=c1ccn([C@@H]2O[C@H](CO)[C@@H](O)[C@H]2O)c(=O)[nH]1 [Compound 82, uridine, reference compound]
inhibition at 100 µM: 18.9 ± 2.8%

SMILES: C[S+](CC[C@H](N)C(=O)O)C[C@H]1O[C@@H](n2cnc3c(N)ncnc32)[C@H](O)[C@@H]1O (stereo partly shown) [Compound 77, S-adenosylmethionine]
Ki (A3 affinity Ki): 2.47 µM

SMILES: CCNC(=O)[C@H]1O[C@@H](n2cnc3c(NCc4cccc(C)c4)ncnc32)[C@H](O)[C@@H]1O [Compound 64, N^6-(3-methylbenzyl)-NECA]
Ki [1]: 0.0012 ± 0.0001 µM

Now from value to compound:

Ki [1]: 0.526 ± 0.142 µM
SMILES: O=S(=O)(O)c1ccc(Nc2ncnc3c2ncn3[C@@H]2O[C@H](CO)[C@@H](O)[C@H]2O)cc1 [Compound 12, N^6 -p-sulfophenyladenosine]

selectivity for A3 over A1 receptors: 110 fold
selectivity for A3 over A2 (A2a) receptors: > 500 fold
Ki [1]: 0.065 ± 0.015 µM
SMILES: CNC(=O)[C@H]1O[C@@H](n2cnc3c(NCc4cccc(NC(C)=O)c4)ncnc32)[C@H](O)[C@@H]1O [Compound 45, N^6-(3-acetamidobenzyl)-NMCA]

inhibition at 100 µM: 17 ± 7.9%
SMILES: Cn1c(=O)[nH]c2c(ncn2C)c1=O [Compound 105, 1,9-dimethylX, reference compound]

Ki [1]: 12.4 µM
Ki [2]: 12.4 µM
A1/A3 (Table 4, ratio of Ki): 0.14
potency decrease at A3 vs 1,3-di-n-butylxanthine-7-β-D-ribofuranoside (benzyl derivatives): 2 fold
SMILES: CCCCn1c(=O)c2c(ncn2[C@@H]2O[C@H](CO)[C@@H](O)[C@H]2O)n(Cc2ccccc2)c1=O [Compound 121, 3-benzyl-1-butylxanthine-7-β-D-ribofuranoside]

A1/A3: 0.23
SMILES: CCCCCCn1c(=O)c2c(ncn2[C@@H]2O[C@H](CO)[C@@H](O)[C@H]2O)n(CCCCCC)c1=O [Example 64, 1,3-di-n-hexylxanthine-7-β-D-ribofuranoside]

inhibition at 100 µM (at 100 μM): 15.5 ± 12.1%
SMILES: Cn1c(=O)[nH]c2ncn(C)c2c1=O [Compound 104, 1,7-dimethylX]

Ki [1]: 98.5 µM
Ki (read-out: Ki at A3 receptors): 99 µM
SMILES: Nc1nc2c(ncn2[C@@H]2O[C@H](CO)[C@@H](O)[C@H]2O)c(=O)[nH]1 [Compound 86, guanosine, reference compound]

Ki [1]: 0.0087 ± 0.0012 µM
SMILES: CCNC(=O)[C@H]1O[C@@H](n2cnc3c(NCc4cccc([N+](=O)[O-])c4)ncnc32)[C@H](O)[C@@H]1O [Compound 62, N^6-(3-nitrobenzyl)-NECA]

Ki [1]: 3.57 µM
Ki (read-out: Ki at A3 receptors): 3.57 µM
SMILES: COc1cc(OC)cc(C(CNc2ncnc3c2ncn3[C@@H]2O[C@H](CO)[C@@H](O)[C@H]2O)c2ccccc2C)c1 (stereo partly shown) [Compound 10, N^6-[2-(3,5-dimethoxyphenyl)-2-(2-methylphenyl)ethyl]adenosine]

Ki [1]: 45.1 µM
Ki (read-out: Ki at A3 receptors): 45 µM
SMILES: OC[C@H]1O[C@@H](n2cnc3c(O)ncnc32)[C@H](O)[C@@H]1O [Compound 85, inosine, reference compound]

Ki [1]: 0.24 ± 0.058 µM
SMILES: OC[C@H]1O[C@@H](n2cnc3c(NCCc4ccccc4)ncnc32)[C@H](O)[C@@H]1O [Compound 8, N^6 -phenethyladenosine]

Ki [1]: 143 µM
Ki (read-out: Ki at A3 receptors): 143 µM
SMILES: CCCCn1c(=O)c2[nH]cnc2n(CCCC)c1=O [Compound 109, 1,3-di-n-butyl-xanthine]

A1/A3 (Table 4, ratio of Ki): 0.040
A2/A3 (Table 4, ratio of Ki): 0.23
SMILES: CCCCn1c(=O)c2c(ncn2[C@@H]2O[C@H](C(=O)N(C)C)[C@@H](O)[C@H]2O)n(CCCC)c1=O [Compound 125, N,N-dimethyl 1,3-di-n-butylxanthine-7-β-D-ribofuronamide]

Ki [1]: 0.0256 ± 0.0032 µM
SMILES: CCCCC#Cc1nc(N)c2ncn([C@@H]3O[C@H](C(=O)NCC)[C@@H](O)[C@H]3O)c2n1 [drawing 13 (1st)]

inhibition at 100 µM: 41.9 ± 5%
IC50 (read-out: IC50 at A3 receptors): > 100 µM
SMILES: OC[C@H]1O[C@@H](n2cnc3c(S)ncnc32)[C@H](O)[C@@H]1O [Compound 89, 6-thiopurine riboside, reference compound]

A3 affinity increase vs 1,3-di-n-butylxanthine-7-β-D-ribofuranoside: 2 fold
SMILES: CCCCn1c(=O)c2c(ncn2[C@@H]2O[C@H](C(=O)OC)[C@@H](O)[C@H]2O)n(CCCC)c1=O

Ki [1]: 4.39 µM
Ki (read-out: Ki at A3 receptors): 4.4 µM
SMILES: Nc1nc(Nc2ccccc2)nc2c1ncn2[C@@H]1O[C@H](CO)[C@@H](O)[C@H]1O [Compound 18, 2-(phenylamino)adenosine]

inhibition at 100 µM: 16.4 ± 9.6%
SMILES: Cn1cnc2[nH]c(=O)[nH]c(=O)c21 [Compound 101, 7-methylX, reference compound]

Source: US5773423A (priority 1994, dated 1998)
